# Results reported in US6699880B1 (priority 1999, dated 2004).
# By UniProt entry, the sequences of proteins in these tests, tags left out.
# UniProt P08173, whole entry, looked up: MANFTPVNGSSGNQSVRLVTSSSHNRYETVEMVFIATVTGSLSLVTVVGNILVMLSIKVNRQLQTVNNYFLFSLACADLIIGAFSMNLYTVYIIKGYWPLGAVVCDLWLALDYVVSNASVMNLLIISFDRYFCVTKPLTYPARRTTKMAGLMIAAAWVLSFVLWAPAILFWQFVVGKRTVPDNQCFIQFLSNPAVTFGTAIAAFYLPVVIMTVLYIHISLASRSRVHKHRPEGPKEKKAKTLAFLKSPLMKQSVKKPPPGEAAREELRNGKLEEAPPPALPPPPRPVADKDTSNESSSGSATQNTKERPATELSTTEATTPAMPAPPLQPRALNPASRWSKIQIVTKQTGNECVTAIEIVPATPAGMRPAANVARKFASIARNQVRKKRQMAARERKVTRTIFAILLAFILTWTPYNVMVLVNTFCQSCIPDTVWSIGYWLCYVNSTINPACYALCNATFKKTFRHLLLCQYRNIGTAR
# Target: human m4 receptor (Homo sapiens, UniProt P08173)
# Settings: maximum intracellular fluorescence intensity at test compound 10 mm; carbachol (10 mm) = 100%; in the presence of ATP (10 nM); hm4/Gi/Luc/CHO cells, Fluo-3
row,Compound,Agonist Activity (%) (M4 Receptors-Stimulating Activity)
1,COC(=O)N1CCC(N2CCC(n3c(=O)n(C(=O)OC)c4ccccc43)CC2)CC1,95
2,COC(=O)N1CCC(N2CCC(n3c(=O)n(S(C)(=O)=O)c4ccccc43)CC2)CC1,95
3,CCn1c(=O)n(C2CCN(C3CCN(C(=O)OC)CC3)CC2)c2ccccc21,94
4,CCCn1c(=O)n(C2CCN(C3CCN(C(=O)OC)CC3)CC2)c2ccccc21,101
